Literature values as cited in publication PMC10491737.

Chains of the proteins cited; added tags and fusions are not shown. Residues count along the entry.
UniProt P11142, whole entry, looked up: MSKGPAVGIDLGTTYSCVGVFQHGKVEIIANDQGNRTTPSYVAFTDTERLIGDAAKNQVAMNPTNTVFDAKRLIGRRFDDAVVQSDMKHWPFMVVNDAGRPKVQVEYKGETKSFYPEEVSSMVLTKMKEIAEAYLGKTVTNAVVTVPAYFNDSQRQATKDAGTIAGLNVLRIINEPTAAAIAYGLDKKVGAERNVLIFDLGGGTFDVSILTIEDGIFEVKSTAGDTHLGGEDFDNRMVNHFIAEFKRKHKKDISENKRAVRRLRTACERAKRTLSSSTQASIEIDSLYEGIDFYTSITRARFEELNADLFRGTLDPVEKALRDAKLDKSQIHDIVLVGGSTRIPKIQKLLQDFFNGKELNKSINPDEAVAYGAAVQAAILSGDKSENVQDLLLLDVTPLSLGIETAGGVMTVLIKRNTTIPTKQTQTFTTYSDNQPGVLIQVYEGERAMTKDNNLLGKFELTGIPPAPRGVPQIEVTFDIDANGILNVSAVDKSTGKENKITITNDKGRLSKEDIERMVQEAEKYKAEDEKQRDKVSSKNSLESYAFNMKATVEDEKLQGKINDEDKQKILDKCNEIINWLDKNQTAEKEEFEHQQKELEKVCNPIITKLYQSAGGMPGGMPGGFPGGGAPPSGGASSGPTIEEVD
UniProt Q9UNE7, 22-154: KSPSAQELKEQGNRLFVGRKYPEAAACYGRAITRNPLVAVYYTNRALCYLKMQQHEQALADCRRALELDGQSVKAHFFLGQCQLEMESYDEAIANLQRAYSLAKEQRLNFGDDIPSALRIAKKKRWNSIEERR

Target: Hsc70 last 10 amino acids (Homo sapiens) (UniProt P11142)
Experiment: FP

pKd: 6.21
Substance: CHIP TPR domain (from UniProt Q9UNE7)

pKd: −log10 of the molar value.
